Values quoted from earlier work in publication PMC7503831 (Molecules, 2020).
Marks after values point to notes of the source that are not given here.

Amino acid sequences for entries named in this document (tags omitted).
UniProt P41143, whole entry: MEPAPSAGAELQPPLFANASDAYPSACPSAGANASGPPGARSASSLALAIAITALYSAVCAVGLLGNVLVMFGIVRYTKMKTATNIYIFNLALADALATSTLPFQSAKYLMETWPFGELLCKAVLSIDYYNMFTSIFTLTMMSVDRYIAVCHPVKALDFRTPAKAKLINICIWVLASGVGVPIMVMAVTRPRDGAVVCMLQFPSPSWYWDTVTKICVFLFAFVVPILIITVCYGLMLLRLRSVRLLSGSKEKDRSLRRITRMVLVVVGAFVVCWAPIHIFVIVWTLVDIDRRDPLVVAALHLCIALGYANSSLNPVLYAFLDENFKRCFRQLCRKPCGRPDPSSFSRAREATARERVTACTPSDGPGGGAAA

Molecular target: T1, human DOR (Homo sapiens, UniProt P41143)
T1 construct: expressed in transfected cells; host or cells: CHO cells (membrane preparation)
Conditions: standards: DPDPE (1 μM) DOR agonist, ICI-174,864 (10 μM) DOR inverse agonist; cited from earlier work

DPDPE
Functional Activity for DOR, Emax (standard): 100 ^e %
